Measurements taken from article PMC9762305.

By UniProt entry, the sequences of proteins in these tests, tags left out. Residues count along the entry.
UniProt Q9BZ71, 615-974 limits assumed: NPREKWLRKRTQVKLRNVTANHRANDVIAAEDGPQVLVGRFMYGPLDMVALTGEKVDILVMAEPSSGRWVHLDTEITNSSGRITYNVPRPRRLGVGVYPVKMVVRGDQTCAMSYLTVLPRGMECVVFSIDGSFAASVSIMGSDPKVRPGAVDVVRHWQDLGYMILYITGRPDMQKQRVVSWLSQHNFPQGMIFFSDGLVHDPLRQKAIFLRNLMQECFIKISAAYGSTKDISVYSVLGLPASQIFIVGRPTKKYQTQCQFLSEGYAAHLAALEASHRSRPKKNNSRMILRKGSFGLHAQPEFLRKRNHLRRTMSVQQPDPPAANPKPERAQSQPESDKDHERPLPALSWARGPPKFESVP

Target: purified human recombinant PITPNM3 (Homo sapiens, UniProt Q9BZ71)
Test: biolayer interferometry (Fortebio Octet)
Conditions: immobilised PITPNM3

## COc1ccc(C(=O)CC2(O)C(=O)N(CN3CCN(Cc4ccc5c(c4)OCO5)CC3)c3ccccc32)cc1 (stereo not shown)
  Kd: 500 nM
